Laboratory results published in patent US8920832B2, “Composition for nucleic acid transfection” (Hokkaido System Science Co., Ltd., priority 2006, dated 2014).

System: HeLa cells
Assay: DNA (pCMV-SPORT-βgal) transfection into HeLa cells: β-gal activity
Settings: enhancer added to liposome solution of Formulation Example 4; summary of Tables 13 and 14 (HeLa and HT1080)

poly L-lysine
effect of enhancer on nucleic-acid-transfecting performance and cytotoxicity, in words: excellent effects
